According to ChEMBL document CHEMBL4613266, “Discovery and Structure Relationships of Salicylanilide Derivatives as Potent, Non-acidic P2X1 Receptor Antagonists” (J Med Chem, 2020):

Tests used:
[1] = target: T1, P2X purinoceptor 2 (Homo sapiens) (UniProt Q9UBL9); experiment: Antagonist activity at human P2X2 receptor expressed in human 1321N1 cells assessed as inhibition of ATP-induced cytosolic calcium influx at 10 uM preincubated for 30 mins followed by ATP addition by Fluo-4 AM dye-based fluorescence assay relative to control; type: cell-based
T1 sequence (whole entry): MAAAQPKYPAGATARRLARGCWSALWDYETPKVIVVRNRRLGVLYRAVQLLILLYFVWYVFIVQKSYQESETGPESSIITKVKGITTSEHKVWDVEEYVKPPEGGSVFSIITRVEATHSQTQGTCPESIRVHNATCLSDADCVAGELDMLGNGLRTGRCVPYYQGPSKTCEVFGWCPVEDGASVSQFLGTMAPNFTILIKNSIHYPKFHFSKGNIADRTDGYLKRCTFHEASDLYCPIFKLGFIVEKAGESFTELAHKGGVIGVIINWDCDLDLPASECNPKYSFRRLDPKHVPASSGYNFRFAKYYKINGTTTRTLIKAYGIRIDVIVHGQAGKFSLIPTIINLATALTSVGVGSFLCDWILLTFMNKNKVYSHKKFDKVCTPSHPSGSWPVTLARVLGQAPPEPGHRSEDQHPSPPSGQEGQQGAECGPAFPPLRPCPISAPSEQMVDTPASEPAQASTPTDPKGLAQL

[2] = target: T2, P2X purinoceptor 1 (Homo sapiens) (UniProt P51575); experiment: Antagonist activity at non-desensitizing human P2X1 receptor ( P2X2/P2X1 chimera) expressed in human 1321N1 cells assessed as inhibition of ATP-induced calcium influx at 10 uM pre-incubated for 30 mins before ATP stimulation by FLIPR assay relative to control; type: cell-based
T2 sequence (whole entry): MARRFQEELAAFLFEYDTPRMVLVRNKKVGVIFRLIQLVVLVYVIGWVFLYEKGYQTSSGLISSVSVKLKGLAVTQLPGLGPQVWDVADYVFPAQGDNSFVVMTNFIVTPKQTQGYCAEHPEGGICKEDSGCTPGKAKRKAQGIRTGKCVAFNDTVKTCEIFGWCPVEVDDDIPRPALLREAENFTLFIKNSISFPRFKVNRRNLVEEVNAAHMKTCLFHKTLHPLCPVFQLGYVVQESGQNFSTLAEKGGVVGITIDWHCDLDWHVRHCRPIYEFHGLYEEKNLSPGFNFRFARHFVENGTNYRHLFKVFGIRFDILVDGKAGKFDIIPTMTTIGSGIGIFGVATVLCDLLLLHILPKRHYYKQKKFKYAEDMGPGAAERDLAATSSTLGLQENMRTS

- inhibition [1]: 6%
SMILES: O=C(Nc1cc(C(F)(F)F)cc(C(F)(F)F)c1)c1ccc2ccccc2c1O
- inhibition [2]: 105%
